Experimental data published in ChEMBL document CHEMBL1139597, “Evaluation of 3-substituted arginine analogs as selective inhibitors of human nitric oxide synthase isozymes” (Bioorg Med Chem Lett, 2005).
pIC50: −log10 of the molar value.

The chains behind the UniProt entries cited, without tags or fusion partners.
UniProt P29475, whole entry: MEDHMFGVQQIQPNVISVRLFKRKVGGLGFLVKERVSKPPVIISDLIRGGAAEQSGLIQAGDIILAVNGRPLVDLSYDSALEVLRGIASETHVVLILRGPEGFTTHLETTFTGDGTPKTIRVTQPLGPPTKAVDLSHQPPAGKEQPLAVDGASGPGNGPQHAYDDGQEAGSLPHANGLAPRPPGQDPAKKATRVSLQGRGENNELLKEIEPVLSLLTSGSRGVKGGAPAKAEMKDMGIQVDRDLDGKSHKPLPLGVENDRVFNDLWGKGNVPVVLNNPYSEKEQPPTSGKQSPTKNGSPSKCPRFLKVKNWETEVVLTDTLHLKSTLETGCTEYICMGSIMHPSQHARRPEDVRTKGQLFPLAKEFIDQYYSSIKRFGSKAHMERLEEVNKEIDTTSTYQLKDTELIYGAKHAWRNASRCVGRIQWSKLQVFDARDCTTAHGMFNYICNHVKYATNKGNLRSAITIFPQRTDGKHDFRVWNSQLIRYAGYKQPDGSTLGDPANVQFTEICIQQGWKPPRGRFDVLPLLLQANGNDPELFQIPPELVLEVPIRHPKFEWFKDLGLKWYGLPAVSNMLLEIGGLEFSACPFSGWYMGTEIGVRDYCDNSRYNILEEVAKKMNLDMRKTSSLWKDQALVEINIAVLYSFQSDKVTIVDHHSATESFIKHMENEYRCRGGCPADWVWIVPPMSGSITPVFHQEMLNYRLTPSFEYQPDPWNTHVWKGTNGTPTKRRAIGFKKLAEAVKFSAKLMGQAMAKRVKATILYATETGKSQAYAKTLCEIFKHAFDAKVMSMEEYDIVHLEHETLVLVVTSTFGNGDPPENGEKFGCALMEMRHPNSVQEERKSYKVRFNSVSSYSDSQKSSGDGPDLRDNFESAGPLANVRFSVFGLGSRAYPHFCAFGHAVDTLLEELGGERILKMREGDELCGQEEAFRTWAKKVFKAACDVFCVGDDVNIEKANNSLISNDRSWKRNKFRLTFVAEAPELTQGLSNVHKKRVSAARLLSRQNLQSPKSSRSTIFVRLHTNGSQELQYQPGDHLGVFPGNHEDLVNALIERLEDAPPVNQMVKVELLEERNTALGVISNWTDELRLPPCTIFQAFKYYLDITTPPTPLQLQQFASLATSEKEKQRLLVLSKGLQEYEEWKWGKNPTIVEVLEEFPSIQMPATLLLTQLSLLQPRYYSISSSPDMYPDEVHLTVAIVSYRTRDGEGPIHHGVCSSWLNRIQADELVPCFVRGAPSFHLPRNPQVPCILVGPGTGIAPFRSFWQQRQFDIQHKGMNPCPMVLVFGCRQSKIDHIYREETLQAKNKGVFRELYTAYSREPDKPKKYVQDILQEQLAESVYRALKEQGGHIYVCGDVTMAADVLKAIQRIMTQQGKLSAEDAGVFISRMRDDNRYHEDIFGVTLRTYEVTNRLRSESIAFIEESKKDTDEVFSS

Biological target: Nitric oxide synthase 1 (Homo sapiens, UniProt P29475)
Experiment: Inhibitory concentration against human neuronal nitric oxide synthase expressed in Sf-9 cells
Method in brief: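 Recombinant human NOS isozyme produced in Sf-9 insect cells. Enzyme activity was followed as conversion of [¹⁴C]-L-Arg to [¹⁴C]-L-Cit, and IC50 was calculated from the concentration dependence of inhibition. Inhibitors were tested up to 1 mM.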

pIC50: 5.05
Compound: CC(=N)NCCC[C@H](N)C(=O)O [L-NIO]
